Source: patent publication US20130157953A1, “TREATMENT OF CARDIAC CONDITIONS” (Zealand Pharma A/S, priority 2010, published 2013)

Amino acid sequences for entries named in this document (tags omitted). A change or cut given only in a name is not applied to a line headed by its entry.
UniProt P43220: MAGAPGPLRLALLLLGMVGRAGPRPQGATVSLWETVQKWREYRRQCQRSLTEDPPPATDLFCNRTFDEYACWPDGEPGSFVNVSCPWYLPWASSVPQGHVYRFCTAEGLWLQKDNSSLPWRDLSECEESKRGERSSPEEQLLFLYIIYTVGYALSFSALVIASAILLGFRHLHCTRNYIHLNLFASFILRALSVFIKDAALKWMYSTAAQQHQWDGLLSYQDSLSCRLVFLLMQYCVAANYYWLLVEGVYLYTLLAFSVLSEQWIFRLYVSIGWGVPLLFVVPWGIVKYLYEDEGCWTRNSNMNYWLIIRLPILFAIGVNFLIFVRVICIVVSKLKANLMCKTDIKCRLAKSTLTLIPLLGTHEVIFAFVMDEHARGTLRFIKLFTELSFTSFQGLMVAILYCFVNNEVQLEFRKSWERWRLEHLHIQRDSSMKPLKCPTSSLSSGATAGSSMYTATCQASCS

Target: human glucagon-like peptide 1 receptor (GLP-1R) (human, UniProt P43220 24-463)
Assay: cell-based or functional assay

EC50 (nM) GLP-1R; cAMP content, HEK293 cells expressing human GLP-1R: 0.23 nM
Binder: HAQGTFTSDYSKYLDSKAAHDFVEWLLSA (Aib at 2; K(Hexadecanoyl-[3-Aminopropanoyl]) at 17; C-terminal amide) [Compound 215]
